Where “and” joins values, the source holds several entries; their conditions need not be identical. Equal entries are not always repeated.
Assays:
[1] = biological target: SNARE–αSNAP complex on vesicles (rat | bovine) (UniProt P60881); assay: single-molecule pull-down of labelled NSF via the SNARE–αSNAP complex with counting of photobleaching steps (TIRF); SNARE vesicles (1:500) held on NeutrAvidin, 100 nM αSNAP loaded and washed; 5 pM NSF (WT or A-MT hybrid) or 10 pM NSF (N-MT hybrid); non-hydrolyzing, 1 mM ATP/1 mM EDTA; H50N50 buffer
[2] = biological target: vesicle-reconstituted SNARE complex (ΔN-SNARE complex vesicles loaded with soluble synaptobrevin-2 1–96) (rat) (UniProt P60881); assay: single-molecule fluorescence co-localisation with counting of photobleaching steps (TIRF); SNARE vesicles (1:30,000 protein/lipid) held on NeutrAvidin; 100 nM SNAP-tag-αSNAP, then 1 nM Dylight549-labelled NSF with 1 mM ATP and 1 mM EDTA; H50N50 buffer

Amino acid sequences for entries named in this document (tags omitted). A change or cut given only in a name is not applied to a line headed by its entry.
UniProt P60881: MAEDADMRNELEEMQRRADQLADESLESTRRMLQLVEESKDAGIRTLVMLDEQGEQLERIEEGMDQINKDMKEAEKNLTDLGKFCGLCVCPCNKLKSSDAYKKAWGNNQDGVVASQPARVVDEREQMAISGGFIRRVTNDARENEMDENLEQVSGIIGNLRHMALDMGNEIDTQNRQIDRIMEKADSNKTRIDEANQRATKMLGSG

“N-MT hybrid NSF hexamer with three N-MT subunits (from UniProt P18708 1-744; P18708 207-744) (complex)” showed a relative avidity (normalized to single-mutant hexamers) [1] of 25%.

In the case of “N-MT hybrid NSF hexamer with two N-MT subunits (from UniProt P18708 1-744; P18708 207-744) (complex)”, the reduction of relative avidity against hexamers with one N-MT subunit [1] is reported as 20%.

In the case of “SNAP-tag-αSNAP labelled with BG-Alexa647 (from UniProt P81125 1-295) (natural protein)”, the percent of 20S complexes with four photobleaching steps of αSNAP [2] is reported as 14% and the stoichiometry N [2] is reported as 4 and 2.

Source: PMC8163800, “Extreme parsimony in ATP consumption by 20S complexes in the global disassembly of single SNARE complexes” (Nature Communications, 2021)
